# According to patent US9611277B2 (Janssen Pharmaceutica NV, priority 2013, dated 2017):
# What was measured:
# [1] = target: rat orexin 1 receptor (Rattus norvegicus, UniProt P56718); assay: Rat orexin 1 receptor radioligand binding; settings: averages of 2-20 runs, read-out: rOX1 Ki
# Description: Data are analyzed using pc-Sandy macro and graphed on Graphpad Prism 5. For analysis, each concentration point is averaged from triplicate values and the averaged values are plotted on Graphpad Prism. The IC50 was determined by applying the following equation (GraphPad Prism 5.0, SanDiego) for one site competition where X=log (concentration) and Y=specific binding. Top denotes the total [^3H]-(1-(5-(2-fluoro-phenyl)-2-methyl-thiazol-4-yl)-1-((S)-2-(5-phenyl-(1,3,4)oxadiazol-2-ylmethyl)-pyrrolidin-1-yl)-methanone) binding, bottom denotes the nonspecific [^3H]-(1-(5-(2-fluoro-phenyl)-2-methyl-thiazol-4-yl)-1-((S)-2-(5-phenyl-(1,3,4)oxadiazol-2-ylmethyl)-pyrrolidin-1-yl)-methanone) binding. Graphpad Prism calculates Ki value from IC50 and the pre-determined Kd values for [^3H]-(1-(5-(2-fluoro-phenyl)-2-methyl-thiazol-4-yl)-1-((S)-2-(5-phenyl-(1,3,4)oxadiazol-2-ylmethyl)-pyrrolidin-1-yl)-methanone) and [3H]-EMPA. The Ki for each compound is then uploaded into 3DX. Each run comprises individual compounds in triplicate. […]
# After centrifugation (2K×G, 5 min at 4° C.), the supernatant was aspirated and the pellets frozen and stored at −80° C. […] Total and nonspecific binding was determined in the absence and presence of 10 μM almorexant. […] Plates were dried in 55° C. oven for 60 min, scintillation fluid was added, and the radioactivity was counted on a Topcount (Packard).
# [2] = target: human orexin 1 receptor (Homo sapiens, UniProt O43613); assay: Human orexin 1 receptor radioligand binding; settings: read-out: hOX1 Ki
# Description: Data are analyzed using pc-Sandy macro and graphed on Graphpad Prism 5. For analysis, each concentration point is averaged from triplicate values and the averaged values are plotted on Graphpad Prism. The IC50 was determined by applying the following equation (GraphPad Prism 5.0, SanDiego) for one site competition where X=log (concentration) and Y=specific binding. Top denotes the total [^3H]-(1-(5-(2-fluoro-phenyl)-2-methyl-thiazol-4-yl)-1-((S)-2-(5-phenyl-(1,3,4)oxadiazol-2-ylmethyl)-pyrrolidin-1-yl)-methanone) binding, bottom denotes the nonspecific [^3H]-(1-(5-(2-fluoro-phenyl)-2-methyl-thiazol-4-yl)-1-((S)-2-(5-phenyl-(1,3,4)oxadiazol-2-ylmethyl)-pyrrolidin-1-yl)-methanone) binding. Graphpad Prism calculates Ki value from IC50 and the pre-determined Kd values for [^3H]-(1-(5-(2-fluoro-phenyl)-2-methyl-thiazol-4-yl)-1-((S)-2-(5-phenyl-(1,3,4)oxadiazol-2-ylmethyl)-pyrrolidin-1-yl)-methanone) and [3H]-EMPA. The Ki for each compound is then uploaded into 3DX. Each run comprises individual compounds in triplicate. The data in Table 1 and Table 2 represent averages from between 2-20 runs
# Rat and Human Orexin 1 Receptor Radioligand Binding Studies
# After centrifugation (2K×G, 5 min at 4° C.), the supernatant was aspirated and the pellets frozen and stored at −80° C. […] Each cell pellet from a 15 cm plate was resuspended in 10 mL, stored on ice, and homogenized for 45 sec prior to addition to the reactions. […] The final concentration of DMSO in the reactions is equal to or less than 0.1%. Total and nonspecific binding was determined in the absence and presence of 10 μM almorexant. The total volume of each reaction is 200 μL (20 μL of diluted compounds, 80 μL of [^3H]-(1-(5-(2-fluoro-phenyl)-2-methyl-thiazol-4-yl)-1-((S)-2-(5-phenyl-(1,3,4)oxadiazol-2-ylmethyl)-pyrrolidin-1-yl)-methanone) diluted in PBS and 100 μL of the cell suspension). […] The plates were washed 3 times by aspirating 30 ml PBS through the plates. Plates were dried in 55° C. oven for 60 min, scintillation fluid was added, and the radioactivity was counted on a Topcount (Packard).
# [3] = human orexin 1 receptor, averages of 2-20 runs
Structure (SMILES),Ki [1] [nM],"Ki [2, 3] [nM]",also measured
"O=C(c1cccc(F)c1-c1ncccn1)N1C[C@H]2C[C@@H](Oc3ccc(C(F)(F)F)cn3)[C@@H]1C2 [Example 27, (3-fluoro-2-(pyrimidin-2-yl)phenyl)((1S,4R,6R)-6-((5-(trifluoromethyl)pyridin-2-yl)oxy)-2-azabicyclo[2.2.1]heptan-2-yl)methanone]",6,,
"O=C(c1cccc(F)c1-c1ncccn1)N1CC2CCC1C(Oc1ccc(C(F)(F)F)cn1)C2 (racemic) [Example 248, (R/S)-(3-fluoro-2-(pyrimidin-2-yl)phenyl)(6-((5-(trifluoromethyl)pyridin-2-yl)oxy)-2-azabicyclo[2.2.2]octan-2-yl)methanone]",,14,
"O=C(c1cccc(F)c1-n1nccn1)N1CC2CCC1C(Oc1ccc(C(F)(F)F)cn1)C2 (racemic) [Example 249, (R/S)-(3-fluoro-2-(2H-1,2,3-triazol-2-yl)phenyl)(6-((5-(trifluoromethyl)pyridin-2-yl)oxy)-2-azabicyclo[2.2.2]octan-2-yl)methanone]",,15,
"O=C(c1cccc(F)c1-n1nccn1)N1CC2CCC1C(Nc1cnc(C(F)(F)F)cn1)C2 (racemic) [Example 255, (R/S)-(3-fluoro-2-(2H-1,2,3-triazol-2-yl)phenyl)(6-((5-(trifluoromethyl)pyrazin-2-yl)amino)-2-azabicyclo[2.2.2]octan-2-yl)methanone]",12,,
"O=C(c1cccc(F)c1-c1ncccn1)N1C[C@@H]2CC[C@H]1[C@H](Oc1ccc(C(F)(F)F)cn1)C2 [Example 73, (3-fluoro-2-(pyrimidin-2-yl)phenyl)((1S,4R,6R)-6-((5-(trifluoromethyl)pyridin-2-yl)oxy)-2-azabicyclo[2.2.2]octan-2-yl)methanone]",,,Ki [2]: 11 nM

# Like-named read-outs stand apart in the source and are kept apart here.
